Experimental findings from patent US6355624B1, “Measurement of plasma volume” (University Wales College of Medicine, priority 1997, dated 2002) are described below.

Several values for one entry are separate records, joined by “and”; a condition that tells them apart may be missing. Identical values can stand only once.

The nature of this series: Volume of distribution of FITC-Elohaes compared with Evans Blue labelled albumin in healthy and endotoxic newborn piglets. The conditions noted are these: endotoxic (E. coli) newborn piglets, approx 1.0 mg/kg, individual piglets and mean. The protocol: Seventeen piglets were used in this study. The animals were randomised into two groups, a healthy (control) group and an Escherichia coli (endotoxic) group. The animals of the endotoxic group received a bolus injection of E. coli (1.667 μg/kg), followed by a continuous infusion of E. coli (1.667 μg/kg/hr) throughout the experiment. The control group received the same dose of isotonic saline injection and infusion. Approximately 30 minutes thereafter, a sample of blood (0.6 ml) was obtained from the femoral vein catheter prior to injection of the plasma marker. A volume between 0.5 ml and 1.0 ml of the indicator was injected {of approximately 1.0 mg/kg for both plasma markers} via the femoral vein catheter into the bloodstream. The catheter was then flushed clean with an equal volume of isotonic saline. […] As before, following the withdrawal of each sample, the catheter was flushed with an equal volume of isotonic saline. Samples were obtained at various time intervals over a 6 hour period, the majority were collected within the first hour after administration of the plasma marker. Blood samples were then centrifuged at approximately 2500 r.p.m for 10-15 minutes and plasma/serum withdrawn.

`Cc1cc(-c2ccc(/N=N/c3ccc4c(S(=O)(=O)O)cc(S(=O)(=O)O)c(N)c4c3O)c(C)c2)ccc1/N=N/c1ccc2c(S(=O)(=O)O)cc(S(=O)(=O)O)c(N)c2c1O` [Evans Blue, reference compound]: the VD was 0.1182 L/kg and 0.1115 L/kg.
